Molecules are shown by their SMILES. The entries are a selection whose mix differs from that of the whole data set. Some results for these compounds are left out of this collection, so the calls shown say nothing about other tests. Calls of active or inactive are those of the source.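 How the source made its calls: active means mean luciferase reporter signal, scaled so untreated is 0 and the glycosylation-blocking control 100, at or above a set limit in every replicate; inconclusive means mean reaches the limit but not every replicate does; inactive means mean below the limit.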

Experimental findings from PubChem BioAssay AID588692 (Broad Institute, 2011) are described below.

The nature of the assay: increase of ERlucT glycosylation luciferase signal, primary screen, N-linked glycosylation inhibitor project, D54 ERlucT cells, luminescence, set 2 (AID 588692).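 Further: luciferase carries N-glycosylation sites so blocking glycosylation raises the light; 0% = median of neutral control wells and 100% = median of 100 nM tunicamycin wells.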 The conditions noted are these: 24 h, at 12.5 µM, stronger effect = higher value, percent of 100 nM tunicamycin response.
Regarding `O=C(NCC1(N2CCCCC2)CCCCC1)c1cccc(Br)c1`, the reporter increase is inactive: -5.88%.
In the case of `CCN1CCCC(OC(=O)C2(O)c3ccccc3C=Cc3ccccc32)C1` (stereo unspecified), the reporter increase was inactive: -1.41%.
With `Cc1cc(C(=O)NCC2(N3CCCCC3)CCCCC2)ccc1[N+](=O)[O-]`, the reporter increase is inactive: -7.1%.
In the case of `COc1ccc(C(=O)NCC2(N(C)C)CCCCC2)cc1`, the reporter increase is inactive: 0.906%.
In the case of `O=C(NCC1(N2CCCCC2)CCCCC1)c1cc(F)c(F)cc1Cl`, the reporter increase is inactive: -1.03%.
With `C=CCN1CCN(CCOC(=O)C(O)(c2ccccc2)c2ccccc2)CC1`, the reporter increase is inactive: 0.234%.
For the molecule `CN(C)c1ccc(C(=O)NCC2(N(C)C)CCCCC2)cc1`, the reporter increase is inactive: 1.78%.
`CN(C)C1CCCC1OC(=O)C(O)(c1ccccc1)c1ccccc1` (stereo unspecified): the reporter increase is inactive: -0.924%.
The figure for `Cc1ccccc1C(=O)NCC1(N2CCCCC2)CCCCC1` is inactive: 1.54%; for `Cc1ccc(C(=O)NCC2(N3CCCCC3)CCCCC2)cc1` it is inactive: -3.24%.
In the case of `CC(C)N1C(=O)CC2(CCN(CCOC(=O)C(O)(c3ccccc3)c3ccccc3)CC2)C1=O`, the reporter increase was inactive: -2.49%.
On to `COc1cc(SC)ccc1C(=O)NCC1(N(C)C)CCCCC1`, for which the reporter increase is inactive: 0.964%.
The figure for `CCN(CC)CC(C)C(C)OC(=O)C(O)(c1ccccc1)c1ccccc1` (stereo unspecified) is inactive: -0.854%; for `CN1[C@@H]2CC[C@H]1CC(OC(=O)C(O)(c1ccccc1)c1ccccc1)C2` (stereo partly specified) it is inactive: -0.912%.
As to `O=C(NCC1(N2CCCCC2)CCCCC1)c1cc([N+](=O)[O-])ccc1Cl`, the reporter increase is inactive: -7.62%.
On to `CN(C)c1cccc(C(=O)NCC2(N(C)C)CCCCC2)c1`, for which the reporter increase was inactive: -0.916%.
In the case of `O=C(OCCN1CCCC1)C(O)(c1ccccc1)c1ccccc1`, the reporter increase was inactive: -0.197%.
Consider `CC(C)Oc1ccc(C(=O)NCC2(N(C)C)CCCCC2)cc1`, for which the reporter increase was inactive: -3.01%.
`COc1ccc(Br)c(C(=O)NCC2(N3CCCCC3)CCCCC2)c1`: the reporter increase is inactive: -0.433%.
With `C=C(C)C#CC(O)(C(=O)OC1CCN(C)CC1)c1ccccc1` (stereo unspecified), the reporter increase is inactive: -0.223%.
The figure for `O=C(OC1CN2CCC1CC2)C(CO)(c1ccccc1)c1ccccc1` (stereo unspecified) is inactive: 2.68%; for `O=C(NCC1(N2CCCCC2)CCCCC1)c1cccc(Cl)c1` it is inactive: -6.17%.
In the case of `COc1ccc(Cl)cc1C(=O)NCC1(N(C)C)CCCCC1`, the reporter increase was inactive: 2.51%.
Then `COc1cccc(C(=O)NCC2(N3CCCCC3)CCCCC2)c1`, with inactive: -3.79%.
Consider `COc1cc(C(=O)NCC2(N(C)C)CCCCC2)c([N+](=O)[O-])cc1OC`, for which the reporter increase is inactive: 0.75%.
In the case of `CN(C)C1(CNC(=O)c2ccc(Br)cc2)CCCCC1`, the reporter increase was inactive: -2.54%.
